Activation data for 45 compounds are collected here from PubChem BioAssay AID624171 (National Center for Advancing Translational Sciences (NCATS), 2012).

The entries are a selection whose mix differs from that of the whole data set. Calls of active or inactive are those of the source. Calls follow the shape of the dose curve; as a rule, active = well fitted activation curve with a large enough effect; inconclusive = small, poorly fitted or top-dose-only effect; inactive = flat fitted curve, though single readings scatter.

A short description of this test: qHTS of Nrf2 Activators. Also: % of control where 0% means no effect; nearly all actives have a fitted effect of over 65% in size. The settings on record: AREc32 ARE-luciferase reporter (MCF7-derived line), luminescence, 24 h; at 46.1 µM (top of the series). An excerpt: Many diseases have some form of oxidative stress injury and ties to inflammation, causing a host of problems for the patient. The antioxidant response element (ARE) plays an important role in alleviating the harmful effects of oxidative stress. The antioxidant response element (ARE) is a transcriptional regulatory element involved in the activation of genes coding for a number of antioxidant proteins and detoxifying enzymes. These enzymes work in concert to protect tissues from oxidative insults and chemical toxicities in human hepatocytes and immune cells. The protective effects of ARE activation are primarily triggered through Nrf2 (NF-E2-related factor) binding to and activating AREs. It is known that Nrf2 controls the production of over 250 antioxidant and detoxification proteins (Hu et al., 2006), thereby protecting tissues by increasing cellular antioxidant content and suppressing inflammatory signaling pathways. The transcription factor Nrf2 is a central link between oxidative chemicals, such as phenolic antioxidants and electrophilic compounds, and the activation of ARE. Nrf2 levels are constitutively low as a consequence of its interaction with Keap1, which targets its degradation (Zipper and Mulcahy, 2002). Electrophiles react with key cysteine residues in Keap1, releasing Nrf2 and allowing its translocation to the nucleus. Once within the nucleus, Nrf2 complexes with coactivators such as p300, and binds to the AREs to induce gene transcription of cytoprotective enzymes, resulting in the prevention of toxicity. Activation of Nrf2 protects tissues by increasing cellular antioxidant content and suppressing inflammatory signaling pathways. Identifying novel and potent Nrf2 activators by using the AREc32 cell line to detect ARE activation by small molecules will lead to the identification and development of probes to study protective pathways in multiple tissues. These specific probes are essential to study the ARE pathway, and eventually to determine whether this pathway does activate genes that could protect against a host of diseases, including cardiovascular diseases, obesity, diabetes, Alzheimer's, and Parkinson's disease.
This project's aim is to identify novel and potent Nrf2 activators by using the AREc32 cell line to detect ARE activation by small molecules, which will lead to the identification and development of probes to study the ARE pathway.
NIH Chemical Genomics Center [NCGC]
NIH Molecular Libraries Probe Centers Network [MLPCN]
Assay Submitter (PI): Curtis Klaassen, University of Kansas Medical Center
5 uL of 1000 cells/well of AREc32_Fluc cells are seeded into 1536-well plate in OPTI-MEM medium with 5% FBS. The plates are incubated overnight at 37 deg C with 5% CO2. Then through pin tool transfer, 23 nL of compounds are added to each well before a 24 hr incubation at 37 deg C with 5% CO2. After the addition of 2.5 uL of Steady-Glo. the plates are kept at RT for 30 min, before they are read on the ViewLux.
In general terms: qHTS replaces the single test concentration by a dilution series.
Consider `CP(=O)(Nc1ccc(Cl)cc1Cl)Oc1ccccc1` (stereo not given), for which the activation is inactive: 3.96%.
In the case of `Cc1cc(C)cc(OP(C)(=O)Nc2cccc(C(F)(F)F)c2)c1` (stereo not given), the activation was inactive: 2.71%.
Take `COc1ccccc1OP(C)(=O)Nc1ccc(C)c(C)c1` (stereo not given): the activation is inactive: 0.324%.
On to `COc1ccc(OP(C)(=O)Nc2ccccc2Br)cc1` (stereo not given), for which the activation is inactive: -0.976%.
Under `O=[N+]([O-])c1cc([N+](=O)[O-])c(Nc2ccccn2)c([N+](=O)[O-])c1` stands inactive: -2.85%; under `Cc1c(NP(C)(=O)Oc2ccc(C(C)C)cc2)c(=O)n(-c2ccccc2)n1C` (stereo not given), inactive: 0.263%; under `COc1ccccc1OP(C)(=O)Nc1ccc(C)cc1C` (stereo not given), inactive: -0.366%.
For `CP(=O)(Nc1ccccn1)Oc1ccccc1` (stereo not given), the activation was inactive: -0.178%.
Then `CCc1ccc(OP(C)(=O)O)cc1`, with inactive: 0.113%.
`COc1ccccc1OP(C)(=O)Nc1ccc(Br)cc1` (stereo not given): the activation was inactive: 0.156%.
With `COc1ccc(OP(C)(=O)Nc2ccccn2)cc1` (stereo not given), the activation is inactive: -1.14%.
As for `CN(C)CCOC(=O)C(O)(c1ccccc1)C1CCCC1` (stereo not given), the activation is inactive: 0.0093%.
In the case of `CC(C)(C)c1ccc(OP(C)(=O)O)cc1`, the activation is inactive: -0.691%.
Consider `COc1ccccc1OP(C)(=O)Nc1ccccc1Br` (stereo not given), for which the activation is inactive: -0.378%.
Regarding `CP(=O)(Nc1ccc(Cl)cc1)Oc1ccc(F)cc1` (stereo not given), the activation was inactive: 0.734%.
Regarding `CN(C)C(=O)c1c([N+](=O)[O-])cc([N+](=O)[O-])cc1[N+](=O)[O-]`, the activation was inactive: -3.38%.
Turning to `COc1ccc(OP(C)(=O)Nc2ccc(Br)cc2)cc1` (stereo not given), the activation was inactive: 3.74%.
Then `CCN(CC)CC(O)COC(=O)C(O)(c1ccccc1)C1CCCCC1` (stereo not given), with inactive: 0.253%; and `O=C(OCCCN1CCCC1)C(O)(c1ccccc1)C1CCCCC1` (stereo not given), with inactive: -0.359%.
Turning to `COc1ccccc1OP(C)(=O)Nc1c(C)n(C)n(-c2ccccc2)c1=O` (stereo not given), the activation was inactive: -0.751%.
For `CCc1ccc(OP(C)(=O)Nc2cccnc2)cc1` (stereo not given), the activation is inactive: 0.712%.
Turning to `CP(=O)(Oc1ccccc1)N1CCOC1=O` (stereo not given), the activation is inactive: -0.764%.
With `Nc1ccc2c(ccc3cccnc32)n1.O=[N+]([O-])c1cc([N+](=O)[O-])c(O)c([N+](=O)[O-])c1`, the activation was inactive: 11.1%.
With `CCOC(=O)c1ccc(NP(C)(=O)Oc2ccc(Cl)cc2)cc1` (stereo not given), the activation was inactive: 0.444%.
As for `CP(=O)(OC12CC3CC(CC(C3)C1)C2)OC12CC3CC(CC(C3)C1)C2`, the activation is inactive: -0.22%.
As for `O=[N+]([O-])c1ccc(OP2(=O)COCCO2)cc1` (stereo not given), the activation was inactive: 0.202%.
Then `Cc1cc(-c2cccc3ccccc23)c(C)cn1.O=[N+]([O-])c1cc([N+](=O)[O-])c(O)c([N+](=O)[O-])c1`, with inactive: 0.572%.
As for `Cc1c(C(c2ccc3c(c2)OCO3)c2c(C)n(C)n(-c3ccccc3)c2=O)c(=O)n(-c2ccccc2)n1C.O=[N+]([O-])c1cc([N+](=O)[O-])c(O)c([N+](=O)[O-])c1`, the activation is inactive: -0.707%.
In the case of `COc1ccc(OP(C)(=O)Nc2cccc(Br)c2)cc1` (stereo not given), the activation was inactive: 0.0225%.
For the compound `CN(C)CCOC(=O)C(O)(c1ccccc1)C1CCCCC1` (stereo not given), the activation was inactive: -0.349%.
Take `COc1ccc(NP(C)(=O)Oc2ccccc2OC)cc1` (stereo not given): the activation is inactive: 1.85%.
As to `CP(=O)(Nc1ccc2c(c1)OCCO2)Oc1ccccc1` (stereo not given), the activation was inactive: 0.114%.
Consider `Cc1ccccc1NP(C)(=O)Nc1ccccc1C`, for which the activation was inactive: -0.178%.
`O=[N+]([O-])c1cc([N+](=O)[O-])c(C(F)(F)F)c([N+](=O)[O-])c1O`: the activation is inactive: 0.211%.
Consider `CP(=O)(Nc1ccc(SC(F)(F)F)cc1)Oc1ccc(F)cc1` (stereo not given), for which the activation is inactive: -0.0054%.
As to `CCOP(C)(=S)SCC(=O)NC(C)(CC)C(=O)O` (stereo not given), the activation is inactive: -0.576%.
For `O=C(OCCN1CCN(CCOCc2ccccc2)CC1)C(O)(c1ccccc1)c1ccccc1`, the activation is inactive: 0.672%.
For the compound `CP(=O)(Nc1ccccc1F)Oc1ccccc1` (stereo not given), the activation was inactive: 0.388%.
As for `CC(C)c1ccc(OP(C)(=O)Nc2ccc(SC(F)(F)F)cc2)cc1` (stereo not given), the activation was inactive: 0.558%.
Then `Cc1c([N+](=O)[O-])cc([N+](=O)[O-])c(Br)c1[N+](=O)[O-]`, with inactive: -0.548%; and `CCN(CC)CCCOC(=O)C(O)(c1ccccc1)C1CCCCC1` (stereo not given), with inactive: -0.195%.
Regarding `CP(=O)(Nc1ccccc1)Oc1ccc(F)cc1` (stereo not given), the activation was inactive: -0.43%.
Regarding `CCCCCOc1ccc(NP(C)(=O)Oc2ccc(Cl)cc2Cl)cc1` (stereo not given), the activation was inactive: -0.695%.
On to `CCOC(=O)c1ccc(NP(C)(=O)Oc2ccc(F)cc2)cc1` (stereo not given), for which the activation was inactive: -0.562%.
For `COc1ccc(OP(C)(=O)Nc2ccc(SC(F)(F)F)cc2)cc1` (stereo not given), the activation is inactive: -0.204%.
